Reference: patent publication US10125358B2, “Methods and compounds for increasing threonyl-tRNA synthetase activity” (UNIVERSITY OF VERMONT AND STATE AGRICULTURAL COLLEGE, priority 2012, dated 2018)

System: HUVEC
Experiment: Lactate dehydrogenase membrane integrity assay (CytoTox-ONE)
Conditions: HUVECs treated with 50 ng/ml, 6 h and 16 h

## VEGF
  cell lysis / cytotoxicity (LDH): not due to cell lysis
